This assay concerns the target hCA IX (Homo sapiens, UniProt Q16790). Put plainly: Stopped-flow CO2 hydrase assay, hCA IX.

Molecules are shown by their SMILES.

By Ki is commonly meant a dissociation constant, usually derived from enzyme kinetics or from competition with a known ligand. A low value points to higher affinity. In turn, `N#Cc1ccc(CNCCc2ccc(S(N)(=O)=O)cc2)cc1` [Compound 8, 4-(2-((4-Cyanobenzyl)amino)ethyl)benzenesulfonamide] yielded an inhibition constant Ki of 75.4 nM.

Source of the values: article PMC9574929, “Development of Hydrogen Sulfide-Releasing Carbonic Anhydrases IX- and XII-Selective Inhibitors with Enhanced Antihyperalgesic Action in a Rat Model of Arthritis” (Journal of Medicinal Chemistry, 2022).
